Only a part is listed here, and it is no random draw. Activity calls are given as the source filed them. Calls come from the whole dose curve; as a rule, active = well fitted inhibition curve with a large enough effect; inconclusive = small, poorly fitted or top-dose-only effect, or effect the other way; inactive = flat fitted curve, though single readings scatter.

Amino acid sequences for entries named in this document (tags omitted).
UniProt P10828, whole entry: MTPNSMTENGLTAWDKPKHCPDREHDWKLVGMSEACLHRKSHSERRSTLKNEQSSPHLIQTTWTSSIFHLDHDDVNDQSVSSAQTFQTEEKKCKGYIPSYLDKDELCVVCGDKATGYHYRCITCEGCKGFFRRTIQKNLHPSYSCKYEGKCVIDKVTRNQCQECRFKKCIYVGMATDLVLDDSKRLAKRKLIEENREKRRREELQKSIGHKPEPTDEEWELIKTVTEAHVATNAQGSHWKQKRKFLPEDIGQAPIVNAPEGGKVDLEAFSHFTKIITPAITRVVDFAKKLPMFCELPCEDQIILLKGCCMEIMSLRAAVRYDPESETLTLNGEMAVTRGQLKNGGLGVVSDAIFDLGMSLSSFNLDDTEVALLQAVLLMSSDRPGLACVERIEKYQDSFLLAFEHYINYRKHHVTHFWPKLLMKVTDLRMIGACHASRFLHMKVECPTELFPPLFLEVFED

For the experiment, the target named is Thyroid hormone receptor beta (Homo sapiens) (UniProt P10828). The experiment is described as follows: qHTS for Inhibitors of the Interaction of Thyroid Hormone Receptor and Steroid Receptor Coregulator 2.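 Note: plate controls were bound peptide for no effect and peptide without receptor for full effect; nearly all actives have a fitted effect of over 50% in size.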 The settings on record: TRbeta-SRC2 peptide binding, fluorescence polarization, receptor liganded with 1 µM T3; at 106 µM (top of the series). An excerpt:
NIH Molecular Libraries Probe Production Network [MLPCN]
NIH Chemical Genomics Center [NCGC]
Assay Provider: R. Kip Guy, St. Jude Children's Research Hospital
Thyroid receptor (TR) regulates many homeostatic processes including basal metabolism, cardiovascular function, body weight, and lipid trafficking. TR modulators are potential therapeutics for obesity and hyperlipidemias but current thyroid analogs have undesirable side effects, particularly cardiac stimulation. To identify inhibitors that specifically prevent the interaction of TR with the steroid receptor coregulator 2 (SRC2), a fluorescence polarization assay was screened. This assay detects interaction of the ligand-binding domain of human TRb with a Texas Red labeled SRC2 peptide, corresponding to a 20 amino acid region of the nuclear receptor interaction domain (Arnold et al., 2006). Small molecule inhibitors that block the interaction of TR and SRC2 are detected by a decrease in fluorescence polarization.
Arnold, L. A.; Estebanez-Perpina, E.; Togashi, M.; Shelat, A.; Ocasio, C. A.; McReynolds, A. C.; Nguyen, P.; Baxter, J. D.; Fletterick, R. J.; Webb, P.; Guy, R. K. A high-throughput screening method to identify small molecule inhibitors of thyroid hormone receptor coactivator binding. […]
Keywords: NIH Roadmap, MLPCN, MLI, MLSMR, qHTS, NCGC, qHTS, thyroid hormone receptor, steroid receptor coactivator, fluorescence polarization
On the technique in general: In qHTS, concentration-response curves come from the screen itself.
Consider `CP(=O)(Nc1ccc(Cl)cc1Cl)Oc1ccccc1` (stereo unspecified), for which the activity change, negative = inhibition is inactive: -3.1%.
